System: mice
Experiment: Scratching behavior after i.t. opioid injection (morphine-induced scratching, MIS)
Conditions: morphine 0.3 nmol, DAMGO 0.02 nmol, fentanyl

CN1CC[C@]23c4c5ccc(O)c4O[C@H]2[C@@H](O)C=C[C@H]3[C@H]1C5 [morphine]
opioid-induced scratching in GRPR KO vs wild-type littermate mice: nearly abolished

Reference: patent publication US8957024B2, “Composition and methods for reducing opioid-induced pruritus” (priority 2011, dated 2015)
